Calls of active or inactive are those of the source. The calls are words filed in the database; no cut-off is given here.
Experiments:
NCI-H522 = assay: Cytotoxicity against human NCI-H522 cells assessed as reduction in cell viability incubated for 3 days by methylene blue staining based spectrophotometric analysis; assay type: functional; conditions: NCI-H522, 72 h, time 3 day
[1] = biological target: T1, Phospholipid hydroperoxide glutathione peroxidase GPX4 (Homo sapiens) (UniProt P36969); assay: Inhibition of recombinant GPX4 (unknown origin) at 100 uM incubated for 60 mins followed by NADPH addition
T1 sequence (whole entry): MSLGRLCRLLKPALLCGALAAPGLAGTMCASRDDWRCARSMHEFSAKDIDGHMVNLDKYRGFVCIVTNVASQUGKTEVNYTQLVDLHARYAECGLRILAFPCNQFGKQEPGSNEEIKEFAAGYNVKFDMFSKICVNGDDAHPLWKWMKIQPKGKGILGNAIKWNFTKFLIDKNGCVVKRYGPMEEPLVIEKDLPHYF

In the case of `C#Cc1nc(C2=C(C)C(O)CC2)cs1` (racemic), the CC50 (NCI-H522) was 2560 nM and the inhibition [1] was “Active”.
